# Laboratory results from patent US12507703B2, “Methods, devices and compositions for preserving human milk” (The Trustees of Princeton University, priority 2023, dated 2025).
# Tested on: lipase
# Test: Lipase/lipolysis assay (EnzChek Lipase Substrate, quenched BODIPY-fatty acid conjugate) on stored human milk; for Lipase (RFU): test concentration or dose not given here
# Settings: for Lipase (RFU): stored 1 week at −20° C.
# [1] = Food Additive Library compound added to fresh human milk, thawed at room temperature, RFU of <400 considered a hit
# [2] = Food-Sourced Compound Library compound added to fresh human milk, thawed at room temperature, RFU <400 considered a hit
# [3] = compound added to fresh human milk, thawed at room temperature, RFU <400 considered a hit
# [4] = Biolog PM2a compound added to fresh human milk, RFU <400 = hit
# [5] = Biolog PM5 compound added to fresh human milk, RFU <400 = hit
Compound,Lipase (RFU) [1] [RFU],Lipase (RFU) [2] [RFU],Lipase (RFU) [3] [RFU],other results
CCC(=O)C(=O)O [2-Oxobutanoic acid],965.1993,658.9715,,
"c1coc(Cn2cccc2)c1 [Compound 1-Furfurylpyrrole, 1-Furfurylpyrrole]",746.6053,885.6943,,
NCCc1c[nH]cn1.O=P(O)(O)O [Histamine (phosphate)],,,856.2289,
COc1cc2ccc(=O)oc2cc1OC [Scoparone],,,1169.704,
CCCCCCCCCCCCCCCC=O [Hexadecanal],,,882.5139,
O=C1c2c(O)cc(O)cc2OC(c2ccc(O)c(O)c2)C1O (stereo not shown) [Taxifolin],,973.2161,,
Pectin,,,,"Lipase (RFU) [4]: 344.0037 RFU; Hit in lipase inhibition screen (in words) (approximately 2700 compound screen, human milk stored 1 week at −20° C., hit = RFU <400): significantly inhibited lipase activity; Effect on lipase / lipolysis (in words) (human milk stored 1 week at −20° C.): decreased lipase levels; Effect on lipase / lipolysis (in words) (human milk stored 1 week at −20° C., listed as pectin): did inhibited lipase"
C=Cc1ccc(O)c(OC)c1 [2-Methoxy-4-vinylphenol],992.1727,,,
COc1cc2oc(-c3ccc(O)cc3)cc(=O)c2c(O)c1OC [Cirsimaritin],,,1060.157,
O=C(O)CNC(=O)Cc1ccccc1 [Phenylacetylglycine],,709.6029,,
Cc1ncc(C[n+]2csc(CCO)c2C)c(N)n1 [Thiamine monochloride],1054.494,929.7058,,
Oc1cc(O)c2cc(O)c(-c3ccc(O)c(O)c3)[o+]c2c1.[Cl-] [Cyanidin (Chloride)],,,1061.561,
COc1cc2c3c(cc4ccccc4c3c1OC)N(C)CC2 [Dehydronuciferine],,,1046.98,
C=C(C)C1CC=C(C)C(O)C1 (mixture of isomers) [Carveol],1221.384,,757.9921,
C=CC(C)(O)CCC=C(C)C (stereo not shown) [Linalool],1079.408,,1079.674,
OC[C@@H](O)[C@@H](O)[C@@H](O)CO [Ribitol],,769.1821,,
O=c1cc[nH]c(=O)[nH]1 [Uracil],,,,Lipase (RFU) [5]: 876.7354 RFU
OCc1ccccc1 [Benzyl alcohol],818.7648,918.5791,,
"C[C@@H](O)[C@@H](C)O [(2R,3R)-Butane-2,3-diol]",,,932.5003,
Ginkgolide J,,851.9184,,
"COc1ccc(CC(=O)O)cc1OC [3,4-Dimethoxyphenylacetic acid]",,891.1594,,
C[C@]12CCC(=O)C=C1CC[C@@H]1[C@@H]2[C@@H](O)C[C@@]2(C)[C@H]1CC[C@]2(O)C(=O)CO [Hydrocortisone],,,893.9008,
COc1cc(O)c(C(=O)/C=C/c2ccccc2)c(OC)c1 [Flavokawain B],,921.0596,,

Compound,Lipase (RFU) [1] [RFU],Lipase (RFU) [2] [RFU],Lipase (RFU) [3] [RFU],other results
"COc1cnccn1 [Compound 2-Methoxypyrazine, 2-Methoxypyrazine]",1328.477,1228.173,,
O=C1CC[C@@H](C(=O)O)N1 [L-Pyroglutamic Acid],,,,Lipase (RFU) [4]: 891.6509 RFU
CC1=CCC(O)(C(C)C)CC1 (stereo not shown) [Terpinen-4-ol],904.3535,,,
CCOC(=O)C(C)=O [Ethyl pyruvate],1178.631,,,
"CC(=O)c1ccco1 [Compound 2-Acetylfuran, 2-Acetylfuran]",775.2638,,,
OCC1=C[C@@H](O)[C@@H]2C=CO[C@@H](O[C@@H]3O[C@H](CO)[C@@H](O)[C@H](O)[C@H]3O)[C@H]12 [Aucubin],,,736.093,
CC(=O)CCC(=O)O [Levulinic acid],1112.446,,,
N[C@@H](CO)C(=O)O [L-Serine],814.6528,,1099.786,"Lipase (RFU) (Biolog PM1 compound added to fresh human milk, RFU <400 = hit): 1052.209 RFU; Lipase (RFU) [5]: 724.1414 RFU"
"Cc1cn([C@@H]2O[C@H](CO)[C@@H](O)[C@H]2O)c(=O)[nH]c1=O [Compound 5-Methyluridine, 5-Methyluridine]",,808.3751,,
Cc1occc1SSc1ccoc1C [Bis(2-methyl-3-furyl)disulfide],1036.712,,,
CCCCCCCCC/C=C/C(=O)CCc1ccc(O)c(OC)c1 [[10]-Shogaol],,1308.714,,
NC(=O)c1cccnc1 [Nicotinamide],948.4821,940.3634,,Lipase (RFU) [5]: 1058.118 RFU
COc1ccc(-c2cc(=O)c3c(OC)c(OC)c(OC)c(OC)c3o2)cc1 [Tangeretin],,,1368.296,
"CC(C)CCC[C@@H](C)[C@H]1CC[C@H]2[C@@H]3CC[C@H]4C[C@@H](O)CC[C@]4(C)[C@H]3CC[C@]12C [Compound 5α-Cholestan-3β-ol, 5α-Cholestan-3β-ol]",,,1041.979,
CCC(C(=O)O)c1ccccc1 (stereo not shown) [2-Phenylbutanoic acid],,,918.4902,
O=C(O)c1cc(O)c(O)c(O)c1 [Gallic acid],,,7096.454,
CC[C@@H](N)C(=O)O [D(−)-2-Aminobutyric acid],,841.3954,,
CC(=O)N[C@@H](CCCNC(=N)N)C(=O)O [N-Acetyl-L-arginine],,1043.684,,
CCC(C)(O)C(=O)O (stereo not shown) [2-Hydroxy-2-methylbutanoic acid],,1032.358,,
CCOCc1ccccc1 [(Ethoxymethyl)benzene],811.133,,,
COc1ccc(/C=C/C(=O)O)cc1O [Isoferulic acid],,,918.062,
CC(=O)C(C)O (stereo not shown) [3-Hydroxy 2-Butanone],,,,Lipase (RFU) [4]: 1237.018 RFU
S=C=NCc1ccccc1 [Benzyl isothiocyanate],729.6809,910.0522,,

Compound,Lipase (RFU) [1] [RFU],Lipase (RFU) [2] [RFU],Lipase (RFU) [3] [RFU],other results
C=CCSSSCC=C [Diallyl Trisulfide],1075.357,,,
N[C@@H](CCC(=O)N[C@@H](CS)C(=O)NCC(=O)O)C(=O)O [Glutathione],,,,"Lipase (RFU) (Biolog PM4 compound added to fresh human milk, RFU <400 = hit): 715.7865 RFU; Lipase (RFU) [5]: 1028.094 RFU"
CC(C)=CCc1c(-c2ccc(O)cc2O)oc2c3c(cc(O)c2c1=O)OC(C)(C)C=C3 [Morusin],,,883.3222,
CC(=O)O.COc1cc(C=O)ccc1O [Vanillin acetate],737.3261,,814.1248,
CC1(C)OC(=O)C=C[C@]2(C)[C@H]3CC[C@@]4(C)[C@H](c5ccoc5)OC(=O)[C@H]5O[C@]54[C@]3(C)C(=O)C[C@@H]12 [Obacunone],,,1116.692,
Cl.Nc1ccn([C@H]2C[C@H](O)[C@@H](CO)O2)c(=O)n1 [2′-Deoxycytidine (hydrochloride)],,,810.1072,
CC(=O)OC/C=C(\C)CCC=C(C)C [Geranyl acetate],968.4874,,953.9453,
O=C[C@@H](O)[C@H](O)[C@@H](O)[C@@H](O)CO [L-Glucose],,,,Lipase (RFU) [4]: 694.8503 RFU
CC1=CCC2C[C@H]1C2(C)C [(1R)-α-Pinene],,,933.6802,
O=C(O)c1cc(C(=O)O)c2c(n1)C(=O)C(=O)c1cc(C(=O)O)[nH]c1-2 [Pyrroloquinoline quinone],,,875.608,
CC(C)=CCC/C(C)=C/CO [Geraniol],1028.31,,,
CCCCCCCC/C=C\CCCCCCCC(=O)OCC [Ethyl oleate],988.2104,,,
Cc1ncc(C[n+]2csc(CCO)c2C)c(N)n1 [Thiamine (hydrochloride)],1314.57,,858.6987,
N[C@H]1C(O)O[C@H](CO)[C@@H](O)[C@@H]1O (stereo partly shown) [Glucosamine],,724.886,,
CCCCC(CC)CCC(=O)O (stereo not shown) [4-Ethyloctanoic acid],904.8141,,,
O=C(OCc1ccccc1)c1ccccc1O [Benzyl salicylate],910.7358,985.0357,,
"Cc1c[nH]c(=O)nc1N [Compound 5-Methylcytosine, 5-Methylcytosine]",,,1207.487,
Nc1nc2c(ncn2[C@H]2C[C@H](O)[C@@H](CO)O2)c(=O)[nH]1 [2′-Deoxy Guanosine],,,,Lipase (RFU) [5]: 811.6129 RFU
O=Cc1ccc(O)c(O)c1 [Protocatechualdehyde],,988.7553,,
CC(=O)N[C@@H](CCCCN)C(=O)O [Acetyl-L-lysine],,,820.531,
CC(=O)CCc1ccc(O)cc1 [Raspberry ketone],944.1144,,,

# Structures can show the parent of a compound that is named as a salt.
